From patent US20160030407A1, “Method of Treating Inflammatory Lung Disease” (priority 2010, published 2016)

The chains behind the UniProt entries cited, without tags or fusion partners. Residues count along the entry.
UniProt P17787, 26-502: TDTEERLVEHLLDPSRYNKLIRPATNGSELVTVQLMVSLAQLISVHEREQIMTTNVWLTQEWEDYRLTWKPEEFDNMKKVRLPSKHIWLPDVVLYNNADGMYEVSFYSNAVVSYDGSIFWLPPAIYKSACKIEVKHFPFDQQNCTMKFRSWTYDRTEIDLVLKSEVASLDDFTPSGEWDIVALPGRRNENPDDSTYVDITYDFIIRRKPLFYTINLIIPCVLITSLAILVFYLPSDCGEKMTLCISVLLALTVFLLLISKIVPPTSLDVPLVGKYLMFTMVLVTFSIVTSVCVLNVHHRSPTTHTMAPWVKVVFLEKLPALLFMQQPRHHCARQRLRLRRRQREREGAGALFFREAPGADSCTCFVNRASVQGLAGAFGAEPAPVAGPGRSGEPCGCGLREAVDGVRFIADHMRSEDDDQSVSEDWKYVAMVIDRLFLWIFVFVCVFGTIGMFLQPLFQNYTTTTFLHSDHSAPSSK
UniProt P43681, 29-627: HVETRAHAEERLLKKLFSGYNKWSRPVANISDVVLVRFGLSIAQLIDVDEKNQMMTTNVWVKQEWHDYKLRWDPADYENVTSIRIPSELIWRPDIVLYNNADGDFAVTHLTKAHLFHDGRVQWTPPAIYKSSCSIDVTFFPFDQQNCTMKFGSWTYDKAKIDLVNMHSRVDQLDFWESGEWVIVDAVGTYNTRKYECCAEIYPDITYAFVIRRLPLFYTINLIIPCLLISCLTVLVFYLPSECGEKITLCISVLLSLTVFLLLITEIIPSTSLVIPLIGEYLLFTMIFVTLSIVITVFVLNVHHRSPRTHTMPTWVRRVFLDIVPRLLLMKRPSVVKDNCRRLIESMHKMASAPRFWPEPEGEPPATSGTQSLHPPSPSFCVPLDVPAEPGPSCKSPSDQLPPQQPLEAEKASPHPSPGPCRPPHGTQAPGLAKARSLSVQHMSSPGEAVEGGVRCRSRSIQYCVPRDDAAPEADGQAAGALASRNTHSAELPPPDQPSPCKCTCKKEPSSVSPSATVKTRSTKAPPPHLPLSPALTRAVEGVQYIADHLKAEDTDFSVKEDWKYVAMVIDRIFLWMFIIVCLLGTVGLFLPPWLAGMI

Target: T1, nAChR α4/β2 (Homo sapiens, UniProt P17787+P43681)
T1 construct: host or cells: HEK293 cells, transient
Assay: cell-based
Conditions: read-out: Normalized % Inhibition
Procedure: Briefly, cells were incubated with […] dye for 30 min at 37° C.

CN1CCCC1c1cccnc1.O=C(O)C(O)C(O)C(=O)O (single isomer, unassigned; (-)) [Nicotine, (−) Nicotine hydrogen tartrate] was tested, and the inhibition at 1 µM was 107%.
